# Test results: ChEMBL document CHEMBL5154836, “4,5-Dihydroxypyrimidine Methyl Carboxylates, Carboxylic Acids, and Carboxamides as Inhibitors of Human Cytomegalovirus pUL89 Endonuclease” (J Med Chem, 2022)
# Experiments:
# HFF = assay: Cytotoxicity against HFF cells assessed as cell viability incubated for 168 hrs by MTS-based Cell Titer assay; assay type: toxicity; conditions: human
# [1] = biological target: T1, Tripartite terminase subunit 3 (Human betaherpesvirus 5, UniProt P16732)
# T1 sequence (P16732 whole entry): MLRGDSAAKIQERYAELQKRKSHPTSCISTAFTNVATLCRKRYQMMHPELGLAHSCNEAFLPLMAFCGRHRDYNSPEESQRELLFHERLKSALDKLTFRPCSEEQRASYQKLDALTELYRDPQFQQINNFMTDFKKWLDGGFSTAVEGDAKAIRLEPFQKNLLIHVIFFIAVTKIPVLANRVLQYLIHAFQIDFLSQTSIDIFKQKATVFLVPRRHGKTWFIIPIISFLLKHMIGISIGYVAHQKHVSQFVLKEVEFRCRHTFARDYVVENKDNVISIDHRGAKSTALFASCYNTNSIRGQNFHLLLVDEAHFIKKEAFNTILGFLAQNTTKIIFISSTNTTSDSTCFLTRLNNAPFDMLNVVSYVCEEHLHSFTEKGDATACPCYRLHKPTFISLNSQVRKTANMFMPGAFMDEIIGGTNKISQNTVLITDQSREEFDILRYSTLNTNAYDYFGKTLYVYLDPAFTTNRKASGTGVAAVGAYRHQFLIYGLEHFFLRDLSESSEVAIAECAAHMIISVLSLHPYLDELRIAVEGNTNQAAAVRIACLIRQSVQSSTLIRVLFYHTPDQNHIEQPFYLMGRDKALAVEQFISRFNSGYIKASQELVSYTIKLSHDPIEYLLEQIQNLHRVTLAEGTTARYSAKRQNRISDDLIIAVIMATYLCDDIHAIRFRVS
# [2] = biological target: T1, Tripartite terminase subunit 3; remark: listed apart in the source
SMILES,CC50 (HFF) [µM],IC50 [1] [µM],IC50 [2] [µM]
COC(=O)c1nc(-c2ccc(-c3ccccc3)cc2)[nH]c(=O)c1O,> 100,,
COC(=O)c1nc(Cc2ccc(Cl)c(Cl)c2)[nH]c(=O)c1O,> 100,,
O=C(O)c1cn(Cc2ccc(Cl)c(F)c2)cc(O)c1=O,,4.2,4.2
O=C(O)c1nc(Cc2ccc(Cl)c(Cl)c2)nc(O)c1O,> 100,,
COC(=O)c1nc(-c2cccs2)nc(O)c1O,> 100,,
O=C(NCc1ccc(C(F)(F)F)cc1)c1nc(-c2cccs2)[nH]c(=O)c1O,43,,
